Measured values from PubChem BioAssay AID425 (Sanford-Burnham Center for Chemical Genomics, 2006).
The list shows a part of the results, in another mix than the full data. Measured potencies and affinities stand elsewhere. The source made the active and inactive calls. Rule as the data show it: active = inhibition above about 50%; inactive = the rest.

Chains of the proteins cited; added tags and fusions are not shown. Lines headed by an entry give the natural chain unless they say otherwise; changes in a name come on top.
UniProt Q64346: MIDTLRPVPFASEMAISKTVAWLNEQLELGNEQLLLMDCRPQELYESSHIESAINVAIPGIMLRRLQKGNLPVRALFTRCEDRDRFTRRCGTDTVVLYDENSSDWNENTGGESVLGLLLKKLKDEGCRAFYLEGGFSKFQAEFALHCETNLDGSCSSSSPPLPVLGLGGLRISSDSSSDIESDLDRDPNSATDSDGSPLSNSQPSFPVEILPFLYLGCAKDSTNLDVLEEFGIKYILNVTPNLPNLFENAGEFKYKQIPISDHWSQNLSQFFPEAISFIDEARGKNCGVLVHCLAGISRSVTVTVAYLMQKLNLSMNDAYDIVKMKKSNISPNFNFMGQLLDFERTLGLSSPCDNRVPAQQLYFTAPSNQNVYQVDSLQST

target: Dual specificity protein phosphatase 6 (Rattus norvegicus) (UniProt Q64346); experiment: inhibition of rat DUSP6 enzyme activity – biochemical, in vitro, primary screen (AID 425); conditions: recombinant MKP-3 phosphatase activity, fluorescence; at 20 µM; active compounds read high;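 also: plate controls were vehicle for no effect and reference inhibitor for full effect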

Row | Structure (SMILES) | inhibition
1 | O=C(COc1ccccc1)OC1CN2CCC1CC2 (stereo not given) | inactive: 1.7%
2 | COC(=O)c1ccc(OP(=O)(Oc2ccc(Cl)cc2C)SCC(C)C)cc1 (stereo not given) | inactive: 1.1%
3 | COP1(=S)c2c(C)nn(CCC#N)c2N=C(c2ccc(F)cc2)N1C (stereo not given) | inactive: -4.4%
4 | O=C(OC1CN2CCC1CC2)C12CC3CC(CC(C3)C1)C2 (stereo not given) | inactive: 2.4%
5 | O=C(CF)NC(Sc1ccc(Cl)cc1)C(Cl)(Cl)Cl (stereo not given) | inactive: -3.8%
6 | O=C(NC(SC1=NCCS1)C(Cl)(Cl)Cl)c1ccc(I)cc1 (stereo not given) | inactive: 2.5%
7 | O=P(Nc1nccs1)(c1ccccc1)c1nc2ccccc2s1 (stereo not given) | inactive: -2.4%
8 | CCOP1(=S)c2c(C)nn(CCC#N)c2N=C(c2ccccc2F)N1C (stereo not given) | inactive: -7.9%
9 | CCOP1(=S)c2c(C)nn(CCC#N)c2N=C(c2ccc(F)cc2)N1C (stereo not given) | inactive: -3.4%
10 | Cc1cccc(OCC(=O)OC2CN3CCC2CC3)c1 (stereo not given) | inactive: -4.4%
11 | Cc1cc(C)nc(SC(NC(=O)c2ccccc2)C(Cl)(Cl)Cl)n1 (stereo not given) | inactive: -0.1%
12 | Clc1n[nH]nc1-c1nn[nH][15n]1 | inactive: -3.7%
13 | O=P1(Nc2ccccn2)COc2ccccc2OC1 | inactive: -1.8%
14 | Cc1nn(-c2ccccc2)c2c1P(=O)(N1CCOCC1)N(C)C(c1ccccc1)=N2 (stereo not given) | inactive: -12.5%
15 | Cc1ccc(SC(NC(=O)c2ccccc2)C(Cl)Cl)cc1 (stereo not given) | inactive: -1.3%
16 | O=P1(Nc2ccc(Br)cn2)COc2ccccc2OC1 | inactive: -5.4%
17 | Cc1ccc(OCC(=O)OC2CN3CCC2CC3)cc1 (stereo not given) | inactive: -8.4%
18 | O=P1(Nc2ncccn2)COc2ccccc2OC1 | inactive: -1.3%
19 | O=CNC(Sc1nc2ccccc2o1)C(Cl)(Cl)Cl (stereo not given) | inactive: 3.7%
20 | CCCCSP(=O)(OCC(C)C)OCC(C)C | inactive: -3.7%
21 | O=C(OC1CN2CCC1CC2)c1cccc(Cl)c1 (stereo not given) | inactive: -2.2%
22 | CCOC(=O)NC(Sc1nc2ccccc2o1)C(Cl)(Cl)Cl (stereo not given) | inactive: 1.5%
23 | c1nnnn1CCn1cnnn1 | inactive: -1.5%
24 | O=P(Nc1nccs1)(c1ccccc1)c1ccccc1 | inactive: -2.4%
25 | COC(=O)NC(Sc1ccc(Cl)cc1)C(Cl)Cl (stereo not given) | inactive: -1.5%
26 | O=P1(Nc2nc3ccc(Cl)cc3s2)COc2ccccc2O1 (stereo not given) | inactive: 1.4%
27 | COC(=O)c1cc2c(s1)N=C(c1ccccc1)N(C)P2(=O)N1CCOCC1 (stereo not given) | inactive: -7.9%
28 | CCCCOP(=O)(OCCCC)SC | inactive: 2.7%
29 | Cc1c2non([O-])c-2c(C)[n+](=O)[n+]1[O-] | inactive: -6.9%
30 | CCc1nc2c(n1)c1c(non1O)c1c2no[n+]1[O-] | inactive: -4.9%
